Experiment: Pharmacokinetic study: plasma triterpenoids by LCMS, non-compartmental analysis
Assay type: in vivo, beagle dogs
Conditions: for AUC0–24 / AUC0–inf / CL / Cmax / MRT / Vd / Half-life / Tmax: plasma; for AUC0–24 / AUC0–inf / CL / Cmax / MRT / Vd: mean ± SD; for Half-life / Tmax: median (IQR)
From the text: The proposed animal experiment was approved by the Institutional Animal Care and Use Committee of the Chulalongkorn University Laboratory Animal Centre (CULAC), Chulalongkorn University, Bangkok, Thailand (Protocol number 2073029, Approval date: […] The dogs were fed with a normal dog diet (Beauty Pro, Nippon Pet Food Co. Ltd.) once a day and water ad libitum. Two groups of four dogs were randomly used with a 2-week washout period. […] After receiving the test substances, the dogs were transferred to a metabolic cage for 48 h for the collection of urine and faeces. All animal procedures were performed in accordance with the ethical principles, regulations, and guidelines for the use of animals (National Research Council of Thailand, 2015). This study was conducted in compliance with the ARRIVE guidelines. Four experimental groups received the oral test compound once daily for seven consecutive days, as follows: ([…] 20 […] 20 mg/kg + piperine 20 mg/kg; ([…] 20 mg/kg + curcumin 20 mg/kg; and (iv) […] 20 mg/kg + piperine 20 mg/kg + curcumin 20 mg/kg. The test substance powders received from the suppliers were packed into gelatine capsule, and the dogs were orally administered two to four capsules in the morning, according to the number of test substances required in the experimental plan. Blood samples (2-3 mL) were withdrawn from the cephalic or saphenous vein using an IV catheter and placed in heparinised tubes. […] The pre-dose and 24 h post-dose blood chemistry parameters were determined by the Small Animal Hospital, Faculty of Veterinary Science, Chulalongkorn University for all dogs, in order to monitor the health status of the dogs. […] All biological samples were kept at - 80 °C until required for analysis. Where the concentration of the samples exceeded the linear calibration curve, blank matrices were used to dilute the sample before protein precipitation. Methanol was used to extract the major triterpenoids from the biological samples for LCMS analysis. In brief, 50 μL of the biological sample was added to 200 μL methanol containing glycyrrhizin and glycyrrhetinic acid as internal standards. The mixture was then centrifuged at 12,000g for 10 min at 4 °C to collect the supernatant, and 10 μL of the supernatant was injected into the LCMS system to measure the concentration of the targeted analytes. […] A Synergi Fusion-RP C18 column (Phenomenex Inc.) was selected as the stationary phase and maintained at 40 °C in the column oven. […] The lower limit of quantification (LLOQ) of each of the compounds in this study ranged from 1.00 to 10.00 μg/L, according to the compound. After oral administration, pharmacokinetic parameters were determined by PK solution software version 2.0 (Submit Research Services, USA.) using non-compartmental analysis. The maximum plasma concentration (Cmax) and time to reach maximum plasma concentration (Tmax) were calculated directly from the concentration-time curves. The area under the curve from time 0-24 h (AUC0-24) was determined by the trapezoidal method and extrapolated to time infinity by the equation AUC0-inf = AUC0-24 + (Clast/kel), where Clast is the last measurable plasma concentration and kel is the elimination rate constant. The rate of […] was equal to - 2.303 × slope. The mean residence time (MRT) was calculated as AUMC0-inf/AUC0-inf, where AUMC0-inf is the area under the first moment curve. The volume of distribution (Vd) was equivalent to dose/C0, where C0 is the concentration of drug measured in plasma at time zero. The total clearance (CL) was equal to dose/AUC0-inf, and the elimination half-life was determined by 0.693/kel. […] The difference in blood chemistry parameters pre-dose and post-dose was compared using Student's t test. SPSS version 22.0 (IBM Corp.) was used to determine statistically significant differences between the experimental groups. […]

[1] = after 20 mg/kg Centell-S + 20 mg/kg curcumin p.o., Day 1
[2] = after 20 mg/kg Centell-S + 20 mg/kg curcumin p.o., Day 7
[3] = after 20 mg/kg Centell-S + 20 mg/kg piperine + 20 mg/kg curcumin p.o., Day 1
[4] = after 20 mg/kg Centell-S + 20 mg/kg piperine + 20 mg/kg curcumin p.o., Day 7
[5] = after 20 mg/kg Centell-S + 20 mg/kg piperine p.o., Day 1
[6] = after 20 mg/kg Centell-S + 20 mg/kg piperine p.o., Day 7

Substance: asiaticoside
- Time to reach maximum plasma concentration (after oral dosing, day 1): 1 to 2 h
- Time to reach maximum plasma concentration (day 7, in most tested groups): 2 to 4 h
- AUC0–24 [1]: 1245 ± 429 ng·h/mL
- AUC0–inf [1]: 1452 ± 613 ng·h/mL
- CL [1]: 71.2 ± 64.7 mL/min/kg
- Cmax [1]: 217.38 ± 61.62 ng/mL
- MRT [1]: 19.20 ± 11.02 h
- Vd [1]: 98.90 ± 21.70 L/kg
- Half-life [1]: 20.79 (19.63) h
- Tmax [1]: 1.50 (1.50) h
- AUC0–24 [2]: 1379 ± 224 ng·h/mL
- AUC0–inf [2]: 1723 ± 552 ng·h/mL
- CL [2]: 67.8 ± 24.3 mL/min/kg
- Cmax [2]: 226.13 ± 63.89 ng/mL
- MRT [2]: 33.30 ± 13.98 h
- Vd [2]: 107.53 ± 42.64 L/kg
- Half-life [2]: 17.32 (5.92) h
- Tmax [2]: 2.00 (0.00) h
- AUC0–24 [3]: 1638 ± 263 ng·h/mL
- AUC0–inf [3]: 1941 ± 315 ng·h/mL
- CL [3]: 67.7 ± 13 mL/min/kg
- Cmax [3]: 314.45 ± 38.90 ng/mL
- MRT [3]: 27.30 ± 5.11 h
- Vd [3]: 109.35 ± 52.20 L/kg
- Half-life [3]: 13.83 (5.75) h
- Tmax [3]: 1.50 (1.00) h
- AUC0–24 [4]: 1536 ± 180 ng·h/mL
- AUC0–inf [4]: 1599 ± 147 ng·h/mL
- CL [4]: 70.2 ± 6.5 mL/min/kg
- Cmax [4]: 376.03 ± 23.99 ng/mL
- MRT [4]: 19.33 ± 3.74 h
- Vd [4]: 107.10 ± 7.81 L/kg
- Half-life [4]: 9.45 (2.53) h
- Tmax [4]: 0.75 (0.75) h
- AUC0–24 [5]: 3146 ± 288 ng·h/mL
- AUC0–inf [5]: 5687 ± 428 ng·h/mL
- CL [5]: 17 ± 8.67 mL/min/kg
- Cmax [5]: 441.53 ± 13.15 ng/mL
- MRT [5]: 61.87 ± 34.24 h
- Vd [5]: 63.45 ± 10.99 L/kg
- Half-life [5]: 19.35 (15.64) h
- Tmax [5]: 2.00 (0.25) h
- AUC0–24 [6]: 1812 ± 500 ng·h/mL
- AUC0–inf [6]: 2144 ± 623 ng·h/mL
- CL [6]: 33.7 ± 17 mL/min/kg
- Cmax [6]: 380.10 ± 72.27 ng/mL
- MRT [6]: 22.58 ± 8.92 h
- Vd [6]: 74.73 ± 25.05 L/kg
- Half-life [6]: 19.68 (2.79) h
- Tmax [6]: 2.00 (0.50) h
- AUC0–24 (after CTS 20 mg/kg p.o., Day 1): 2844 ± 315 ng·h/mL
- AUC0–inf (after CTS 20 mg/kg p.o., Day 1): 5664 ± 385 ng·h/mL
- CL (after CTS 20 mg/kg p.o., Day 1): 9.67 ± 4.17 mL/min/kg
- Cmax (after CTS 20 mg/kg p.o., Day 1): 339.17 ± 58.20 ng/mL
- MRT (after CTS 20 mg/kg p.o., Day 1): 63.30 ± 11.60 h
- Vd (after CTS 20 mg/kg p.o., Day 1): 81.70 ± 5.20 L/kg
- Half-life (after CTS 20 mg/kg p.o., Day 1): 19.55 (6.20) h
- Tmax (after CTS 20 mg/kg p.o., Day 1): 2.00 (0.00) h
- AUC0–24 (after CTS 20 mg/kg p.o., Day 7): 3364 ± 449 ng·h/mL
- AUC0–inf (after CTS 20 mg/kg p.o., Day 7): 5997 ± 458 ng·h/mL
- CL (after CTS 20 mg/kg p.o., Day 7): 15.7 ± 8.67 mL/min/kg
- Cmax (after CTS 20 mg/kg p.o., Day 7): 354.23 ± 69.57 ng/mL
- MRT (after CTS 20 mg/kg p.o., Day 7): 58.33 ± 18.58 h
- Vd (after CTS 20 mg/kg p.o., Day 7): 62.60 ± 14.01 L/kg
- Half-life (after CTS 20 mg/kg p.o., Day 7): 23.13 (14.37) h
- Tmax (after CTS 20 mg/kg p.o., Day 7): 1.50 (1.00) h
